# Experimental data as given in US9173935B2, “Phospholipid drug analogs” (Telormedix SA, priority 2010, dated 2015).
# “And” between values parts separate entries of the source, which are not always exact repeats. Equal values may be shown once.
# Assay: Serum exposure after intravesical chronic treatment
# Protocol: Serum samples were taken at time points: day 0, 2 hours, day 1, 24 hours, and day 6, 2 hours.
# The plate was shaken for 10 minutes and filtered under vacuum (5-10 mm Hg). […] The plate was shaken for 10 minutes and filtered under vacuum (5-10 mm Hg). Samples were evaporated and re-suspended in 70 microliters of acetonitrile/methanol 1:1. […] Column: Acquity BEH C18 50×2.1 mm 1.7 micrometers; injection volume 5 microliters, T column 50° C. […] Column: Acquity BEH C8 50×2.1 mm 1.7 micrometers injection. volume 10 microliters, T column 50° C.
# [1] = Day 6, 2 hours, LLOQ 0.5 ng/ml SC12, 2.5 ng/ml Imiquimod
structure (smiles),measurement,setting,value
"CC(C)Cn1cnc2c(N)nc3ccccc3c21 [Imiquimod, reference compound]","Levels in serum, Mean ± S.D.","Day 0, 2 hours",6.2 ± 0.8 ng/mL
same,"Levels in serum, individual mice","Day 0, 2 hours, intravesical Imiquimod 208 nmol or SC12 206.5 nmol, LLOQ 0.5 ng/ml SC12, 2.5 ng/ml Imiquimod",6.4 ng/mL and 6.8 ng/mL and 5.3 ng/mL
same,"Levels in serum, Mean ± S.D.",[1],8.9 ± 5.6 ng/mL
same,"Levels in serum, individual mice",[1],2.8 ng/mL and 8.1 ng/mL and 16.3 ng/mL and 8.7 ng/mL
